Results: PubChem BioAssay AID1217 (Sanford-Burnham Center for Chemical Genomics, 2008)
The entries are a selection whose mix differs from that of the whole data set. Calls of active or inactive are those of the source.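 How the source made its calls: active means primary screen inhibition at 20 µM above a set limit (cut at about 50% in these data); inactive means the rest.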

system: diaphorase (Clostridium kluyveri); assay: compounds blocking diaphorase resazurin reduction – biochemical, uHTS, resorufin fluorescence, counter-screen for diaphorase-coupled primary assays, primary screen (AID 1217);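 further: plate controls were DMSO with full reaction for no effect and wells lacking NADH for full effect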; details: diaphorase resazurin-to-resorufin fluorescence, NADH, 16 min; at 20 µM; hits give high values; bacterial (C. kluyveri) enzyme, not human
Outline: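 Benchmarks: positive control wells lacking NADH, neutral wells with DMSO only. System: bacterial diaphorase enzyme (C. kluyveri). Input: 0.14 U/mL diaphorase, enzyme working solution. Detection: resorufin fluorescence, excitation 544 nm, emission 590 nm. Times: 16-min room-temperature incubation before reading.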

| Structure (SMILES) | inhibition |
| --- | --- |
| CCOc1ncccc1C(=O)NCC1(N2CCOCC2)CCCCC1 | inactive: 6.4% |
| CC(C)(C)OC(=O)N1CCC(Nc2ccccc2)CC1 | inactive: 4.2% |
| COc1cc(OC)cc(C(=O)NCC2(N3CCOCC3)CCCCC2)c1 | inactive: 4.8% |
| CCC(CO)(C(=O)OC1CN2CCC1CC2)c1ccccc1 (stereo not given) | inactive: 11% |
| Fc1ccccc1NC1CCN(Cc2ccccc2)CC1 | inactive: 17.5% |
| CCN1CCC(Nc2cccc(F)c2)CC1 | inactive: 15.7% |
| CN(C)c1ccc(C(=O)NCC2(N3CCCCC3)CCCCC2)cc1 | inactive: 4.6% |
| N#Cc1ccc(C(=O)NCC2(N3CCCCC3)CCCCC2)cc1 | inactive: 1.1% |
| c1ccc(CN2CCC(Nc3ccccc3)CC2)cc1 | inactive: 17.5% |
| COc1ccc(C(=O)NCC2(N3CCOCC3)CCCCC2)cc1OC | inactive: 4.5% |
| N/C(=N\O)c1c(N)no[n+]1[O-] | inactive: 2.2% |
| O=C(OC1CN2CCC1CC2)C1c2ccccc2C=Cc2ccccc21 (stereo not given) | inactive: -3.4% |
| CC(C)c1ccc(NC2CCN(C(=O)OC(C)(C)C)CC2)cc1 | inactive: 19.6% |
| CN(C)c1cccc(C(=O)NCC2(N3CCCCC3)CCCCC2)c1 | inactive: 8.9% |
| COc1ccc(CN(CCCl)CCCl)cc1Cl | inactive: -8.7% |
| N#CC1(Nc2ccccc2)CCN(CCc2ccccc2)CC1 | inactive: 3.6% |
| O=C(NCC1(N2CCCCC2)CCCCC1)c1cccc([N+](=O)[O-])c1 | inactive: 1.4% |
| O=C(NCC1(N2CCOCC2)CCCCC1)c1cc(=O)[nH]c2ccccc12 | inactive: 2.9% |
| CN1CCN(CCOC(=O)C(O)(c2ccccc2)c2ccccc2)CC1 | inactive: 14.9% |
| COc1ccc(NC2CCN(C(=O)OC(C)(C)C)CC2)cc1 | inactive: 7.4% |
| COc1ccc(NC2CCN(CCc3ccccc3)CC2)c(OC)c1 | inactive: 30.9% |
| COc1ccc(C(=O)NCC2(N3CCCCC3)CCCCC2)c(OC)c1OC | inactive: -12.5% |
| O=C(NCC1(N2CCOCC2)CCCCC1)c1cc2ccccc2o1 | inactive: 13.8% |
| O=C(OC1CN2CCC1CC2)C1c2ccccc2Oc2ccccc21 (stereo not given) | inactive: 16.1% |
| CCOC(=O)N1CCC(Nc2ccc(OC)cc2)CC1 | inactive: 4.6% |
